The experiment deals with T1, PKA (Bos taurus, UniProt P00517).
T1 construct: the purified catalytic subunit of cAMP-dependent protein kinase from bovine heart was a gift; from tissue; host or cells: bovine heart (gift from Dr. William H. Fletcher)
The experiment is described as follows: Rates of phosphorylation of synthetic peptides by PKA. Format: biochemical, bovine. Conditions: for 32P incorporated, %: PKA, AKRASAA taken as 100%; for 32P incorporated: PKA (10.5 units), 0.14 mM ATP. The text has this:
A. Materials. γ-PAK was purified from rabbit reticulocytes to apparent homogeneity by chromatography on DEAE-cellulose, SP-Sepharose, protamine agarose, and FPLC on Mono S and Mono Q. Histone I (type IIIS), mixed histone (type IIAS), trypsin (L-1-tosylamido-2-phenylethyl chloromethyl ketone treated), soybean trypsin inhibitor, bovine serum albumin (fatty acid free), and myelin basic protein were purchased from Sigma. Purified histones 2B and 4 were purchased from Boehringer-Mannheim. Myosin light chain from rabbit skeletal muscle was a gift from Dr. James Stull, University of Texas Southwestern Medical Center, Dallas, Tex.; rat prolactin was provided by Dr. Ameae Walker, University of California, Riverside, Calif.; and the purified catalytic subunit of cAMP-dependent protein kinase from bovine heart was a gift from Dr. William H. Fletcher, J. L. Pettis Memorial V. A. Hospital, Loma Linda, Calif. Protein kinase C was purified from bovine brain according to the procedure of Walton et al. [Walton, G. M., et al., Anal Biochem., 161:425-437 (1987)], with modifications [Venema, R. C., et al., J. Biol. Chem., 266:5298-5302 (1991)]. The clone for GST-Cdc42 was generously provided by Dr. Channing Der, University of North Carolina, Chapel Hill, N.C. Cellulose thin-layer chromatography sheets were from Kodak.
Reactions with PKA (10.5 units) were carried out under the same conditions as with γ-PAK except that 0.14 mM ATP was used. Reactions with PKC (3.4 units) were performed as with PKA, with the addition of 0.4 mM CaCl2, phosphatidylinositol (15 μg/mL), phosphatidylserine (15 μg/ mL), and 1,2-diolein (3 μg/mL), as described [Tuazon, P. T., et al., (1989), supra]. A unit of PKA or PKC is defined as the amount of enzyme that incorporates 1 pmol of phosphate/min at 30° C. into histone IIAS or histone 1, respectively.
PKA and PKC are known to require basic amino acids on the N-terminal side of the phosphorylatable serine/ threonine. To distinguish their substrate specificities from that of γ-PAK, the relative rates of phosphorylation were determined with the synthetic peptide substrates using the conditions for γ-PAK, with the addition of Ca^2+ and phospholipids for PKC. The rates shown in Table 5 are calculated with equivalent units of enzyme; the rate of phosphorylation of the peptide AKRASAA (SEQ ID NO:6) is taken as 100% for all three enzymes. As would be expected, PKA preferentially phosphorylated the peptides that contained RR or RK at the −3 and −2 positions and with […] residues or proline at the −4 and −1 positions inhibitory. PKC recognized SKR>RKS>KKS. The most notable difference between γ-PAK and PKA or PKC is the effect of acidic residues on the susceptibility of the peptide to be phosphorylated. An acidic residue in the −1 or −4 position was beneficial for γ-PAK but was detrimental for both PKA and PKC (Table 5). […] In addition, γ-PAK could not tolerate an arginine in the −3 position when lysine was in the −2 position. On the other hand, PKC and PKA phosphorylated ARKASAA (SEQ ID NO:24) much more quickly than AKRASAA (SEQ ID NO:6).

In the case of “PKRASAA (C-terminal amide) [synthetic peptide with an amide C-terminal group]”, the “32P incorporated, %” value is given as 144%.
Regarding “AKRPSAA (C-terminal amide) [synthetic peptide with an amide C-terminal group]”, the 32P incorporated was 10.3 pmol/unit and the “32P incorporated, %” value is on record as 215%.
The matching figures for “ARKASAA (C-terminal amide) [synthetic peptide with an amide C-terminal group]”: 107.5 pmol/unit and 2240%.
For “RKKKSAA (C-terminal amide) [synthetic peptide with an amide C-terminal group]”, the “32P incorporated, %” value was 112%.
As to “ARRASAA (C-terminal amide) [synthetic peptide with an amide C-terminal group]”, the 32P incorporated was found to be 137.1 pmol/unit and the “32P incorporated, %” value came out at 2856%.
The matching figures for “KKRKSAA [model peptide patterned after the phosphorylation site of nucleocapsid protein NC]”: 19.8 pmol/unit and 412%.

For the origin of these results see patent US20030088057A1, “PEPTIDE SUBSTRATES PHOSPHORYLATED BY P21-ACTIVAGED PROTEIN KINASE STATEMENT REGARDING FEDERALLY SPONSORED REASEARCH OR DEVELOPMENT” (priority 1998, published 2003).
